# Data as given in patent US20030138434A1, “Agents for enhancing the immune response” (priority 2001, published 2003).
# Test system: HCG
# Test: Serum antibody to HCG by ELISA after IP immunization (Example 2)
# Assay type: in vivo, Balb/c mice
# Conditions: 1 ug HCG per boost IP, day 33 pooled test bleed, 3× background criteria
# Experimental: The HCG was obtained from BioPacific of 4240 Hollis Street, Emeryville Calif. 94608 and was provided as a lyophilized powder from a 50 mM ammonium carbonate solution.
# Several laboratories have experience with conjugating substances to alpha 2-M. Linkers for general protein-protein coupling may also be used and are available from Pierce Chemicals with easy to follow instructions. Synergy Vaccines Inc. is an “Incubator Company” located at Becton Dickinson's RTP, NC facility and was selected to carry out the conjugation step.
# All immunizations were given intraperitoneal (IP) at two-week intervals. Again, the IP route was selected thereby creating an option for later harvesting of splenetic B-Cells and generation of MABs for individual antibody analysis. Each animal received 1 ug of HCG per boost in 200 ul of Hanks Buffered Saline. Serum samples were taken from each animal in a test group and pooled for titration. […]
# 9. Stop the reaction with 50 ul of 4.5 molar sulfuuric acid and read at 492 nm with a Titertek plate reader for final record.
substance,measurement,value
"HCG: purified protein preparation of human chorionic gonadotropin, immunogen alone","serum activity toward coated HCG antigen, in words","could not be called positive at the 1:3,333 dilution"
